We go through 1 substance from article PMC2113509.

The target in this assay is fodrin (nonerythroid spectrin) from bovine brain (bovine). The experiment in a line: far-Western, overlay or dot blot.

Take “calmodulin (bovine brain), 125I-labelled (from UniProt P62157 1-149) (natural protein)”: the cpm bound turned out to be 8280 cpm.
